Values of other authors as cited in US8575111B2, “Pharmaceutical compositions and methods for treating erectile dysfunction” (Universidade Federal de Minas Garais-UFMG, priority 2007, dated 2013).
“Also recorded” adds a separate entry of the source.

How the values were obtained:
AT1 = AT1 (Homo sapiens, UniProt P30556); conditions: receptor AT1; cited from earlier work
AT2 = molecular target: T1, AT2 (Homo sapiens, UniProt P50052); conditions: receptor AT2; cited from earlier work
T1 sequence (P50052 1-363): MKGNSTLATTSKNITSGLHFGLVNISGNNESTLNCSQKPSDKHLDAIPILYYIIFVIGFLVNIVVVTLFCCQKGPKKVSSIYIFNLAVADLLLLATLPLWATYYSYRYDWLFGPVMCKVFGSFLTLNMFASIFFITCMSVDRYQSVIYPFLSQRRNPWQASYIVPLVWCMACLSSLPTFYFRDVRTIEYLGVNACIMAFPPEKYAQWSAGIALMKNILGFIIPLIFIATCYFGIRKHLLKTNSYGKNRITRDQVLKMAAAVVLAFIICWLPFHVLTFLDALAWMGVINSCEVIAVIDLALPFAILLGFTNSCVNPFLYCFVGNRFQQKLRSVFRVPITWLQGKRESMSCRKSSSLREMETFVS

Question: With Ang II as the substance, how does the Actions (AT1) read?
Answer: Remodeling and cell proliferation; also recorded: Thrombosis and inflammation; also recorded: Vasoconstriction and pressor; also recorded: Increase of inotropism and; also recorded: Arrhythmogenic effect

Question: What about the Actions (AT2) of the same substance?
Answer: Inhibition of cell proliferation; also recorded: Apoptosis; also recorded: Vasodilation
